# Target: human orexin 1 receptor (Homo sapiens (Human), UniProt O43613)
# Chains of the proteins cited; added tags and fusions are not shown.
# UniProt O43613, whole entry: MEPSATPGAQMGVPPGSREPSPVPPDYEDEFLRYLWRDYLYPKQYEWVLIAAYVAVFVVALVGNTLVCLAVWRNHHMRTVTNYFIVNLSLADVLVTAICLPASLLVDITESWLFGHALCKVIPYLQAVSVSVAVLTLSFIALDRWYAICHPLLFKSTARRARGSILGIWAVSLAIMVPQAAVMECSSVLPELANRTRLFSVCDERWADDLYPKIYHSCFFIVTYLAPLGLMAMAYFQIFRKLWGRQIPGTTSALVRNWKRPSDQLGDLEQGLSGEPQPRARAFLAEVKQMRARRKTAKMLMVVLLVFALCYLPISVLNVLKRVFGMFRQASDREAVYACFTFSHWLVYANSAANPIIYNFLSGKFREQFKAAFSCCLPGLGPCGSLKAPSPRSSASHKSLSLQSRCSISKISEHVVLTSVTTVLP
# Assay: Human orexin 1 receptor radioligand binding (competitive)
# Details: CHO cells stably expressing human orexin 1 receptor; 4 nM radioligand; averages of 2-20 runs; read-out: hOX1 Ki
# Description: (§1) The in vitro affinity of the compounds of the invention for the rat/human orexin 1 and human orexin 2 receptors was determined by competitive radioligand binding using [^3H](1-(5-(2-fluoro-phenyl)-2-methyl-thiazol-4-yl)-1-((S)-2-(5-phenyl-(1,3,4)oxadiazol-2-ylmethyl)-pyrrolidin-1-yl)-methanone) (Langmead et al., 2004) and [^3H]EMPA (n-ethyl-2[96-methoxy-pyridin-3-yl)-(toluene-2-sulfonyl)-amino]-N-pyridin-3-ylmethyl acetamide), respectively (Langmead et al., 2004, British Journal of Pharmacology 141:340-346; Malherbe et al., 2004, British Journal of Pharmacology 156:1326-41).
# (§2) Data are analyzed using pc-Sandy macro and graphed on Graphpad Prism 5. For analysis, each concentration point is averaged from triplicate values and the averaged values are plotted on Graphpad Prism. The IC50 was determined by applying the following equation (GraphPad Prism 5.0, San Diego) for one site competition where X=log (concentration) and Y=specific binding. Top denotes the total [^3H]— (1-(5-(2-fluoro-phenyl)-2-methyl-thiazol-4-yl)-1-((S)-2-(5-phenyl-(1,3,4)oxadiazol-2-ylmethyl)-pyrrolidin-1-yl)-methanone) binding, bottom denotes the nonspecific [^3H]— (1-(5-(2-fluoro-phenyl)-2-methyl-thiazol-4-yl)-1-((S)-2-(5-phenyl-(1,3,4)oxadiazol-2-ylmethyl)-pyrrolidin-1-yl)-methanone) binding. Graphpad Prism calculates Ki value from IC50 and the pre-determined Kd values for [^3H]— (1-(5-(2-fluoro-phenyl)-2-methyl-thiazol-4-yl)-1-((S)-2-(5-phenyl-(1,3,4)oxadiazol-2-ylmethyl)-pyrrolidin-1-yl)-methanone) and [^3H]-EMPA. The Ki for each compound is then uploaded into 3DX. Each run comprises individual compounds in triplicate. The data in Table 1 and Table 2 represent averages from between 2-20 runs
# (§3) Rat and Human Orexin 1 Receptor Radioligand Binding Studies
# (§4) Human Embryonic Kidney 293 cells (HEK293) stably expressing rat orexin 1 receptor (Genebank accession number NM_001525) or Chinese ovary cells (CHO) stably expressing human orexin 1 receptor (Genebank accession number […]) were grown to confluency in DMEM (Hyclone, cat # SH30022), 10% FBS, 1× Pen/Strep, 1× sodium pyruvate, 10 mM HEPES, 600 μg/mL G418 and DMEM/F12 (Gibco, Cat #11039), 10% FBS, 1× Pen/Strep, 600 μg/mL G418 media, respectively on 150 cm^2 tissue culture plates, washed with 5 mM EDTA in PBS (HyClone Dulbecco's Phosphate Buffered Saline 1× with Calcium and Magnesium, Cat # SH30264.01, hereafter referred to simply as PBS) and scraped into 50 ml tubes. After centrifugation (2K×G, 5 min at 4° C.), the supernatant was aspirated and the pellets frozen and stored at −80° C. Cells were resuspended in PBS in the presence of 1 tablet of protease inhibitor cocktail (Roche, Cat. #11836145001) per 50 mL. […] Competition binding experiments in 96 well polypropylene plates were performed using [^3H]— (1-(5-(2-fluoro-phenyl)-2-methyl-thiazol-4-yl)-1-((S)-2-(5-phenyl-(1,3,4)oxadiazol-2-ylmethyl)-pyrrolidin-1-yl)-methanone) (Moraveck Corporation, specific activity=35.3 Ci/mmol), diluted to a 10 nM concentration in PBS (4 nM final). Compounds were solubilized in 100% DMSO (Acros Organics, Cat. #61042-1000) and tested over a range of 7 concentrations (from 0.1 nM to 10 μM). The final concentration of DMSO in the reactions is equal to or less than 0.1%. Total and nonspecific binding was determined in the absence and presence of 10 μM almorexant. The total volume of each reaction is 200 μL (20 μL of diluted compounds, 80 μL of [^3H]— (1-(5-(2-fluoro-phenyl)-2-methyl-thiazol-4-yl)-1-((S)-2-(5-phenyl-(1,3,4)oxadiazol-2-ylmethyl)-pyrrolidin-1-yl)-methanone) diluted in PBS and 100 μL of the cell suspension). Reactions were run for 60 min at room temperature and terminated by filtration through GF/C filter plates (PerkinElmer, Cat. #6005174) presoaked in 0.3% polyethylenimine using the cell harvester (PerkinElmer Filtermate). The plates were washed 3 times by aspirating 30 ml PBS through the plates. Plates were dried in 55° C. oven for 60 min, scintillation fluid was added, and the radioactivity was counted on a Topcount (Packard). […]
row,Compound,Ki [µM]
1,"CC1C2CC(Oc3ccc(C(F)(F)F)cn3)C(C2)N1C(=O)c1ccccc1-n1nccn1 (single isomer, unassigned) [Example 21A, (2-(2H-1,2,3-triazol-2-yl)phenyl)((1R*,3S*,4S*,6S*)-3-methyl-6-((5-(trifluoromethyl)pyridin-2-yl)oxy)-2-azabicyclo[2.2.1]heptan-2-yl)methanone]",0.259
2,"O=C(c1ccccc1-n1nccn1)N1C(CF)C2CC(Oc3ccc(C(F)(F)F)cn3)C1C2 (racemic) [Example 73, (R/S)-(2-(2H-1,2,3-triazol-2-yl)phenyl)(3-(fluoromethyl)-6-((5-(trifluoromethyl)pyridin-2-yl)oxy)-2-azabicyclo[2.2.1]heptan-2-yl)methanone]",0.021
3,"CC1C2CC(Oc3ccc(C(F)(F)F)cn3)C(C2)N1C(=O)c1ccccc1-n1nccn1 (single isomer, unassigned) [Example 21, (R/S)-(2-(2H-1,2,3-triazol-2-yl)phenyl)(3-methyl-6-((5-(trifluoromethyl)pyridin-2-yl)oxy)-2-azabicyclo[2.2.1]heptan-2-yl)methanone]",0.004
4,"CC1C2CC(Oc3ccc(C(F)(F)F)cn3)C(C2)N1C(=O)c1ccccc1-n1nccn1 (single isomer, unassigned) [Example 2B, (2-(2H-1,2,3-triazol-2-yl)phenyl)((1S*,3S*,4R*,6R*)-3-methyl-6-((5-(trifluoromethyl)pyridin-2-yl)oxy)-2-azabicyclo[2.2.1]heptan-2-yl)methanone]",0.054

# More lines, now with the values ahead:
row,Ki [µM],Compound
1,0.022,"CC1C2CC(Oc3ccc(C(F)(F)F)cn3)C(C2)N1C(=O)c1ccccc1-n1nccn1 (single isomer, unassigned) [Example 2, (R/S)-(2-(2H-1,2,3-triazol-2-yl)phenyl)(3-methyl-6-((5-(trifluoromethyl)pyridin-2-yl)oxy)-2-azabicyclo[2.2.1]heptan-2-yl)methanone]"
2,0.004,"[2H]C1([2H])[C@H]2C[C@@H]([C@@H]1Oc1ccc(C(F)(F)F)cn1)N(C(=O)c1ccccc1-n1nccn1)[C@@H]2C [Example 201, [(1R,3R,4S,6R)-2,2-dideuterio-6-methyl-3-[[5-(trifluoromethyl)-2-pyridyl]oxy]-5-azabicyclo[2.2.1]heptan-5-yl]-[2-(triazol-2-yl)phenyl]methanone]"
3,0.003,"CC1C2CC(Oc3ccc(C(F)(F)F)cn3)C(C2)N1C(=O)c1ccccc1-n1nccn1 (single isomer, unassigned) [Example 21B, (2-(2H-1,2,3-triazol-2-yl)phenyl)((1S*,3R*,4R*,6R*)-3-methyl-6-((5-(trifluoromethyl)pyridin-2-yl)oxy)-2-azabicyclo[2.2.1]heptan-2-yl)methanone]"
4,0.006,"C[C@@H]1[C@H]2C[C@@H](Oc3ccc(C(F)(F)F)cn3)[C@H](C2)N1C(=O)c1c(F)cccc1-n1nccn1 (relative stereo) [Example 30, (2-fluoro-6-(2H-1,2,3-triazol-2-yl)phenyl)((1S*,3R*,4R*,6R*)-3-methyl-6-((5-(trifluoromethyl)pyridin-2-yl)oxy)-2-azabicyclo[2.2.1]heptan-2-yl)methanone]"
5,0.031,"C[C@@H]1[C@H]2C[C@@H](Oc3cnc(C(F)(F)F)cn3)[C@H](C2)N1C(=O)c1ccc(F)cc1-n1nccn1 (relative stereo) [Example 53, (4-fluoro-2-(2H-1,2,3-triazol-2-yl)phenyl)((1S*,3R*,4R*,6R*)-3-methyl-6-((5-(trifluoromethyl)pyrazin-2-yl)oxy)-2-azabicyclo[2.2.1]heptan-2-yl)methanone]"

# Target: rat orexin 1 receptor (Rattus norvegicus, UniProt P56718)
# Assay: Rat orexin 1 receptor radioligand binding (competitive)
# Details: HEK293 cells stably expressing rat orexin 1 receptor; 4 nM radioligand; averages of 2-20 runs; read-out: rOX1 Ki
# Description: as §1, §2, §3, §4
row,Compound,Ki [µM]
1,"CC1C2CC(Oc3ccc(C(F)(F)F)cn3)C(C2)N1C(=O)c1ccc(F)cc1-c1ncccn1 (single isomer, unassigned) [Example 17A, (4-fluoro-2-(pyrimidin-2-yl)phenyl)((1R*,3S*,4S*,6S*)-3-methyl-6-((5-(trifluoromethyl)pyridin-2-yl)oxy)-2-azabicyclo[2.2.1]heptan-2-yl)methanone]",0.339
2,"C[C@@H]1[C@H]2C[C@@H](Oc3ccc(C(F)(F)F)cn3)[C@H](C2)N1C(=O)c1ccccc1-c1cccc(F)n1 [Example 173, [2-(6-fluoro-2-pyridyl)phenyl]-[(1R,2R,4S,5R)-2-methyl-5-[[5-(trifluoromethyl)-2-pyridyl]oxy]-3-azabicyclo[2.2.1]heptan-3-yl]methanone]",0.003
3,"Cc1ccc(-n2nccn2)c(C(=O)N2C(C)C3CC(Oc4ccc(C(F)(F)F)cn4)C2C3)n1 (single isomer, unassigned) [Example 3B, (6-methyl-3-(2H-1,2,3-triazol-2-yl)pyridin-2-yl)((1S*,3S*,4R*,6R*)-3-methyl-6-((5-(trifluoromethyl)pyridin-2-yl)oxy)-2-azabicyclo[2.2.1]heptan-2-yl)methanone]",0.351
4,"Cc1ccc(-n2nccn2)c(C(=O)N2C(C)C3CC(Nc4cnc(C(F)(F)F)cn4)C2C3)n1 (single isomer, unassigned) [Example 6A, (6-methyl-3-(2H-1,2,3-triazol-2-yl)pyridin-2-yl)((1R*,3R*,4R*,6S*)-3-methyl-6-((5-(trifluoromethyl)pyrazin-2-yl)amino)-2-azabicyclo[2.2.1]heptan-2-yl)methanone]",6.3

# The remaining lines, values ahead:
row,Ki [µM],Compound
1,0.0048,"[2H]C([2H])([2H])[C@]1([2H])[C@H]2C[C@@H](Oc3ccc(C(F)(F)F)cn3)[C@H](C2)N1C(=O)c1cc(F)ccc1-c1ncccn1 [Example 167, [(1R,2R,4S,5R)-2-deuterio-2-(trideuteriomethyl)-5-[[5-(trifluoromethyl)-2-pyridyl]oxy]-3-azabicyclo[2.2.1]heptan-3-yl]-(5-fluoro-2-pyrimidin-2-yl-phenyl)methanone]"
2,> 10,"Cc1ccc(-n2nccn2)c(C(=O)N2C(C)C3CC(Nc4cnc(C(F)(F)F)cn4)C2C3)n1 (single isomer, unassigned) [Example 69A, (6-methyl-3-(2H-1,2,3-triazol-2-yl)pyridin-2-yl)((1R*,3S*,4R*,6S*)-3-methyl-6-((5-(trifluoromethyl)pyrazin-2-yl)amino)-2-azabicyclo[2.2.1]heptan-2-yl)methanone]"
3,1.74,"Cc1ccc(-c2ncccn2)c(C(=O)N2C(C)C3CC(Oc4ccc(C(F)(F)F)cn4)C2C3)n1 (single isomer, unassigned) [Example 16A, (6-methyl-3-(pyrimidin-2-yl)pyridin-2-yl)((1R*,3S*,4S*,6S*)-3-methyl-6-((5-(trifluoromethyl)pyridin-2-yl)oxy)-2-azabicyclo[2.2.1]heptan-2-yl)methanone]"
4,0.004,"[2H]C([2H])([2H])[C@]1([2H])[C@H]2C[C@@H](Oc3ccc(C(F)(F)F)cn3)[C@H](C2)N1C(=O)c1ncc(C)cc1-n1nccn1 [Example 166, [(1R,2R,4S,5R)-2-deuterio-2-(trideuteriomethyl)-5-[[5-(trifluoromethyl)-2-pyridyl]oxy]-3-azabicyclo[2.2.1]heptan-3-yl]-[5-methyl-3-(triazol-2-yl)-2-pyridyl]methanone]"
